Test results as given in ChEMBL document CHEMBL4049435, “Development of a Series of Kynurenine 3-Monooxygenase Inhibitors Leading to a Clinical Candidate for the Treatment of Acute Pancreatitis” (J Med Chem, 2017).

Protein sequences, listed by entry. Tags and fused reporters are not part of them. Lines headed by an entry give the natural chain unless they say otherwise; changes in a name come on top.
UniProt O15229: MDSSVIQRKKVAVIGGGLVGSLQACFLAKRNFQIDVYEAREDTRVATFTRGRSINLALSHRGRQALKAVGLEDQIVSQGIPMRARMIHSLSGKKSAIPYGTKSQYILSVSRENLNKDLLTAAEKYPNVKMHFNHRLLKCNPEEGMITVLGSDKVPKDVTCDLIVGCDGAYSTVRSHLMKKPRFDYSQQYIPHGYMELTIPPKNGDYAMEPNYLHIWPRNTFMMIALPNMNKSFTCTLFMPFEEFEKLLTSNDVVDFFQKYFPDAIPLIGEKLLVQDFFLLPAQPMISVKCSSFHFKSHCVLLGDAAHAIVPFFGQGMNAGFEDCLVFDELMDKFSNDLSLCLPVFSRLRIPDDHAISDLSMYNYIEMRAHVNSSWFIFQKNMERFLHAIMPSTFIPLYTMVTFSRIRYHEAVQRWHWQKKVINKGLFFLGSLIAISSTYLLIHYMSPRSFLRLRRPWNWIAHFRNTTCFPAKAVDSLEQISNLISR

Assays:
[1] = molecular target: T1, Kynurenine 3-monooxygenase (Homo sapiens, UniProt O15229)
[2] = molecular target: T1, Kynurenine 3-monooxygenase; remark: listed apart in the source
[3] = molecular target: T1, Kynurenine 3-monooxygenase; test: Inhibition of full length human GST-tagged KMO expressed in baculovirus infected Sf9 insect cell membranes using kynurenine as substrate measured after 1 hr by RapidFire high-throughput mass spectrometric analysis

IC50 [1] [nM] | Compound | other results
63100 | C[C@H](Oc1cc2oc(=O)n(CCC(=O)O)c2cc1Cl)c1ccccn1.NC(CO)(CO)CO | 
 | CC(Oc1cc2oc(=O)n(CCC(=O)O)c2cc1Cl)c1ccccn1 (stereo not given) | IC50 [2]: 100 nM
200 | C[C@@H](Oc1cc2oc(=O)n(CCC(=O)O)c2cc1Cl)c1ccccn1.NC(CO)(CO)CO | 
126 | CC(Oc1cc2oc(=O)n(CCC(=O)O)c2cc1Cl)c1ccccn1.NC(CO)(CO)CO (stereo not given) | 
 | C[C@@H](Oc1cc2oc(=O)n(CCC(=O)O)c2cc1Cl)c1ccccn1 | Ki [3]: 0.1 nM
